Earlier results, collected in patent US5322772A (Children's Research Institute, priority 1991, dated 1994).

Molecular target: FKBP
Settings: FKBP isolated from yeast, calf thymus and human T cells (JURKAT); cited from earlier work

## CO[C@H]1C[C@@H]2CC[C@@H](C)[C@@](O)(O2)C(=O)C(=O)N2CCCC[C@H]2C(=O)O[C@H]([C@H](C)C[C@@H]2CC[C@@H](O)[C@H](OC)C2)CC(=O)[C@H](C)/C=C(\C)[C@@H](O)[C@@H](OC)C(=O)[C@H](C)C[C@H](C)/C=C/C=C/C=C/1C [RAP, Rapamycin]
  Kd: ~0.2 nM
